Patent US4769389A, “Oxygenated-alkyl derivatives of glutamic and aspartic acids with antagonistic activity to bio-active polypeptides and a method for their preparation” (priority 1985, dated 1988)

What was measured:
in vivo = settings: mouse, iv
[1] = test system: pancreatitis in mice induced experimentally by cerulein; assay: Pancreatitis induced by cerulein in mice; type: in vivo
Experimental: Adult male mice received six injections of cerulein (Takus) (50 mcg/kg) each hour for six hours.
The compound was administered 30 minutes before each administration of cerulein. Nine hours after the beginning of the treatment, the blood was taken from the rectro-orbitory plexus after anaesthesia with ether, the animals were killed and the pancreas removed and weighed.

[2] = test system: pancreatitis in rats induced experimentally by taurocholate; assay: Pancreatitis induced by sodium taurocolate in rats; type: in vivo
Experimental: The products under examination were administered intraperitoneally (i.p.) 30 minutes before the operation and 3 hours after the operation. Six hours after the laparatomy the blood was removed from the retro-orbitory plexus after anaesthesia with ether, the animals were killed and the pancreas was removed and weighed. The activity of the serum amylase was determined by the method described above.

guinea-pig gallbladder = assay: Anti-CCK activity on guinea-pig gallbladders in vitro (contraction by CCK-8); settings: vs CCK-8 10 ng/ml
Experimental: ANTI-CCK ACTIVITY ON GUINEA-PIG GALLBLADDERS IN VITRO A longitudinal strip of guinea-pig gallbladder is placed in a bath for isolated organs in Krebs at a temperature of 32° C. and oxygenated continuously with an oxygen-CO2 mixture (95-[…]). The isometric contractions were detected by means of a force transducer and recorded. […] The results obtained are shown in Table 3 which gives the compounds tested and the IC50 values found which were calculated by the method of regression in a test of at least three experiments for each compound studied.

CCCCCN(CCCOC)C(=O)C(CCC(=O)O)NC(=O)c1ccc(Cl)c(Cl)c1 (racemic) [Compound 1]
LD50 (in vivo): 396 mg/kg | selectivity ratio (in vivo): 3600 | RATIO WEIGHT OF PANCREAS / ANIMAL WEIGHT ([1]; 5 mg/kg ip + cerulein): 0.46% | RATIO WEIGHT OF PANCREAS / ANIMAL WEIGHT ([1]; 7.5 mg/kg ip + cerulein): 0.40% | RATIO WEIGHT OF PANCREAS / ANIMAL WEIGHT ([1]; 10 mg/kg ip + cerulein): 0.36% | RATIO WEIGHT OF PANCREAS / ANIMAL WEIGHT ([2]; 5 mg/kg i.p. + taurocholate): 0.47% | RATIO WEIGHT OF PANCREAS / ANIMAL WEIGHT ([2]; 10 mg/kg i.p. + taurocholate): 0.42% | RATIO WEIGHT OF PANCREAS / ANIMAL WEIGHT ([2]; 20 mg/kg i.p. + taurocholate): 0.39% | 50% antagonising concentration relative to that of the specific agonist (guinea-pig gallbladder): about 10 times
